One molecule from article PMC11286772, “Structural basis of antagonist selectivity in endothelin receptors” (Cell Discovery, 2024) can be followed below.

Protein sequences, listed by entry. Tags and fused reporters are not part of them. Residues count along the entry.
UniProt P25101, 21-427 R326A: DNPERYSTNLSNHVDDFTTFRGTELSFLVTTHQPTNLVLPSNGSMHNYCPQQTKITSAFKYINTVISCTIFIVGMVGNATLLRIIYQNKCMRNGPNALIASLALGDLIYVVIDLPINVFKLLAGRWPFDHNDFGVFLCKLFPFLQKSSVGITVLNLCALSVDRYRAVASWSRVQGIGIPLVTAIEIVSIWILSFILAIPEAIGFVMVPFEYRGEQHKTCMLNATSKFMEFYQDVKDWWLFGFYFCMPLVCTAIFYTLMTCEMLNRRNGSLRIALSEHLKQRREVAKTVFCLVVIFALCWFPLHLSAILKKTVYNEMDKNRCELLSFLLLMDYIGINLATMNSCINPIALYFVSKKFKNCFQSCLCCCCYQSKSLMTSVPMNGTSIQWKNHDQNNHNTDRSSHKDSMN
UniProt P25101, 21-427 Y129A: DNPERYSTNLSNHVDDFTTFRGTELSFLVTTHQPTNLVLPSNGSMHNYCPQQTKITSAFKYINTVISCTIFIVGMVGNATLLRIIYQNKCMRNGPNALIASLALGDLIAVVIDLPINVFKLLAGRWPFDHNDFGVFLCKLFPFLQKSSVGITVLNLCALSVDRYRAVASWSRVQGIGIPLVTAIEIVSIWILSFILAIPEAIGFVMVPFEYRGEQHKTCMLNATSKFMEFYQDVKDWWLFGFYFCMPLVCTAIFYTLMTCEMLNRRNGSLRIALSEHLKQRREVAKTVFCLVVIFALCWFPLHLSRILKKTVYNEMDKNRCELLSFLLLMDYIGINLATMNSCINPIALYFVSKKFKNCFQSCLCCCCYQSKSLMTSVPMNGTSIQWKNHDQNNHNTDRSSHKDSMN
UniProt P25101, 21-427 Y129H: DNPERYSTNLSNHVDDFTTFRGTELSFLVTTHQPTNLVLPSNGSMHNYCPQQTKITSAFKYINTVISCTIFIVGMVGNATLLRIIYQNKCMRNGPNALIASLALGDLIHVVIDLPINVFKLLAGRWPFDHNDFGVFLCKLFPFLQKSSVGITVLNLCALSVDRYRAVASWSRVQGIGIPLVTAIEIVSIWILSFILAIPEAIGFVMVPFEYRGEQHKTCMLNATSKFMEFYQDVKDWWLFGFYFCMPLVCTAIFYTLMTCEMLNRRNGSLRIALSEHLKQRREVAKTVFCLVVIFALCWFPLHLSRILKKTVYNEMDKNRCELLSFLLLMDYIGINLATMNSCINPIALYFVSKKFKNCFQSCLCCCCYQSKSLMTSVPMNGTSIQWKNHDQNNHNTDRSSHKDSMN
UniProt P25101, 21-427 Y263A: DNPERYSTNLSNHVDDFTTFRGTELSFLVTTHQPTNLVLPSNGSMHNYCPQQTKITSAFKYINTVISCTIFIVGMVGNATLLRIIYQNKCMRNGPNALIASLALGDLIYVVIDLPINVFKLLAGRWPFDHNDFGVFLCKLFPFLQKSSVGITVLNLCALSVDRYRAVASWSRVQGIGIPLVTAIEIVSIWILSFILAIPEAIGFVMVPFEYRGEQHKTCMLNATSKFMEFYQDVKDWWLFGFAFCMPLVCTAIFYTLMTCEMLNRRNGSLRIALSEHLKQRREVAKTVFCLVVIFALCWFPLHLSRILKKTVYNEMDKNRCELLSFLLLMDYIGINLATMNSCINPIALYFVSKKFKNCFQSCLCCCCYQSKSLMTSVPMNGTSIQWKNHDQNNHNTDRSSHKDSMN
UniProt P25101, 21-427 L322A: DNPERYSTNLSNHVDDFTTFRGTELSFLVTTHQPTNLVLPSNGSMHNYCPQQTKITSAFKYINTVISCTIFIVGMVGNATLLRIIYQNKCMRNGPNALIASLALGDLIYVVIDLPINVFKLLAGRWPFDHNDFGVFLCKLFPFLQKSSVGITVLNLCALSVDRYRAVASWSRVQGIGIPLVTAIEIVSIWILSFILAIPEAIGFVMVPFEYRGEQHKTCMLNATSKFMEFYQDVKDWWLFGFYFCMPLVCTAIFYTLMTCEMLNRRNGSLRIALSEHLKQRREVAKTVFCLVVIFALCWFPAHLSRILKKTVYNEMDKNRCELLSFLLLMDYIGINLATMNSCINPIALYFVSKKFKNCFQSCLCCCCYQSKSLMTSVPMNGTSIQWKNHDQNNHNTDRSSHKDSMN
UniProt P25101, 21-427 Y129F: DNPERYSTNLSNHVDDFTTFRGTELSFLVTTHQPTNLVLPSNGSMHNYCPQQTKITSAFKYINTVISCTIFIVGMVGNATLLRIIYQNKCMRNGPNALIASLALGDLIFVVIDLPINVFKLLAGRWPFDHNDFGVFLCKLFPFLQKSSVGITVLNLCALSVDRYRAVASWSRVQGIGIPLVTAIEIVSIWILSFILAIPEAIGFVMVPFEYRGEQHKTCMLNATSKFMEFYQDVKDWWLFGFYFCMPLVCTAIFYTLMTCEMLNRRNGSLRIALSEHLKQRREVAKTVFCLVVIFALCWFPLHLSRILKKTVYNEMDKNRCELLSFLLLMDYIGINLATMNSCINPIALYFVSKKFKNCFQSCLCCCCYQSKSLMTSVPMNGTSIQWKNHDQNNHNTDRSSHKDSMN
UniProt P25101, 21-427 F161A: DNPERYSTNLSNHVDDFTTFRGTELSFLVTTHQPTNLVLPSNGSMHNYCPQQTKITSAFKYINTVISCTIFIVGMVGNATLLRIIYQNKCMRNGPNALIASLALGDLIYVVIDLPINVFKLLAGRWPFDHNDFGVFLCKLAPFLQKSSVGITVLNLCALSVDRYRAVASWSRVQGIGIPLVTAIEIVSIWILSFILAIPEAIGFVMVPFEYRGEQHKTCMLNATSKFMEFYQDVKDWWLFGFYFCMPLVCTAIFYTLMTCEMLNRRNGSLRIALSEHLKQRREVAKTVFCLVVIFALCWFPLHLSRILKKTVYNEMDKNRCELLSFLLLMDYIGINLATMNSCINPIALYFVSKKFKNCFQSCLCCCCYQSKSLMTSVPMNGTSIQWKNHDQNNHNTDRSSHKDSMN
UniProt P25101, 21-427 L259A: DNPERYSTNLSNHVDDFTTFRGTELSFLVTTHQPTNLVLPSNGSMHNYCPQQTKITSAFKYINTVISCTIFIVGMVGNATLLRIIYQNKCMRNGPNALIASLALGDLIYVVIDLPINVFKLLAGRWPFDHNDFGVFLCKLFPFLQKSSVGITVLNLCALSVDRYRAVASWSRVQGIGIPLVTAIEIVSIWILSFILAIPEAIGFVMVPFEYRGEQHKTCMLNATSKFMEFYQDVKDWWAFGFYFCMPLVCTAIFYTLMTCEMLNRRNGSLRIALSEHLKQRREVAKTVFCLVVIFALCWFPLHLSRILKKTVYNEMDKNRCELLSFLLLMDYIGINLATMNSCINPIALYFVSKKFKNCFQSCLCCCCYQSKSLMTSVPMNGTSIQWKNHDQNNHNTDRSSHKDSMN
UniProt P25101, 21-427: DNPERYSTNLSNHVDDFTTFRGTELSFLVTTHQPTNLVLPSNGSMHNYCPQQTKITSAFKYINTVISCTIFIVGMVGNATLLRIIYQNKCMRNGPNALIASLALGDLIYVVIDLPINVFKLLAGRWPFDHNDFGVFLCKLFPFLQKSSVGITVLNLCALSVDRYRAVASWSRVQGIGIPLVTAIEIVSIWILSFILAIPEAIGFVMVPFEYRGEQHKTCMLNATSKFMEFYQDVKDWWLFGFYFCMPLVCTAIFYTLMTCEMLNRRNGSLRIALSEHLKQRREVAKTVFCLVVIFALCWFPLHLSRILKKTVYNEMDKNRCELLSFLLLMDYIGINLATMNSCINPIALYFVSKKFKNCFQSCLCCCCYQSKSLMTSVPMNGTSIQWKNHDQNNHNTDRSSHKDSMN

Like-named read-outs stand apart in the source and are kept apart here.

Holding throughout (assay type): cell-based
One experiment concerns the target T1, ETA R326^6.55A (Homo sapiens, UniProt P25101, R326A).
T1 construct: expressed in transfected cells; host or cells: CHO-K1
In words: Calcium mobilization assay, antagonist mode. The procedure:
(§1) CHO-K1 cells were cultured in Ham’s F-12K (Kaighn’s) Medium (Gibco-Thermo Fisher Scientific) supplemented with 10% (v/v) fetal bovine serum (FBS; Gibco-Thermo Fisher Scientific), and 100 U/mL Penicillin-Streptomycin (Gibco-Thermo Fisher Scientific) in a humidified incubator at 37 °C with 5% CO2. Cells were seeded in 6-cm dishes overnight; when the density reached 60%–80%, the cells were transferred to F12K Medium supplemented with 10% FBS and transfected with 1.5 μg DNA encoding the ETA WT or mutants or 3 μg DNA encoding the ETB WT or mutants using TransIT2020 (Mirus Biosciences). The next day, transfected cells were harvested from the plate using Versene buffer (Gibco-Thermo Fisher Scientific) and seeded into black-sided, clear-bottomed 384-well plates (Agilent) at a density of 1,5000 cells per well. After 20 h, the 1% dFBS medium was removed, and cells were loaded with 20 μL/well of 1× Calcium 6 dye (Molecular Devices) and incubated at 37 °C for 1 h in the dark. […] All data were analyzed using GraphPad Prism 8 and the data are from at least three independent replicate experiments. All plots are shown as means ± SEM. Data were determined using one-way ANOVA followed by Dunnett’s multiple test compared with WT. The top value was normalized to 100% and the bottom value was normalized to 0% for the final presentation. Nonlinear curve fit was performed using a four-parameter logistic equation (log (agonist vs response) or log (inhibitor vs response)).
On the technique in general: A change in cytosolic calcium serves as a functional read-out for many receptors and channels.

The next experiment has as its target T2, ETA Y129^2.53A (Homo sapiens, UniProt P25101, Y129A).
T2 construct: expressed in transfected cells; host or cells: CHO-K1
Nature of the experiment: Calcium mobilization assay, antagonist mode. The procedure: as §1

The target of a further experiment is T3, ETA Y129^2.53H (Homo sapiens, UniProt P25101, Y129H).
T3 construct: expressed in transfected cells; host or cells: CHO-K1
In words: Calcium mobilization assay, antagonist mode. As to the method:
as §1

In the next experiment the target is T4, ETA Y263^5.46A (Homo sapiens, UniProt P25101, Y263A).
T4 construct: expressed in transfected cells; host or cells: CHO-K1
In words: Calcium mobilization assay, antagonist mode. The procedure:
as §1

In the next experiment the target is T5, ETA L322^6.51A (Homo sapiens, UniProt P25101, L322A).
T5 construct: expressed in transfected cells; host or cells: CHO-K1
In words: Calcium mobilization assay, antagonist mode. As to the method: as §1

A further experiment addresses T6, ETA Y129^2.53F (Homo sapiens, UniProt P25101, Y129F).
T6 construct: expressed in transfected cells; host or cells: CHO-K1
In words: Calcium mobilization assay, antagonist mode. As to the method: as §1

The next experiment concerns the target T7, ETA F161^3.28A (Homo sapiens, UniProt P25101, F161A).
T7 construct: expressed in transfected cells; host or cells: CHO-K1
Nature of the experiment: Calcium mobilization assay, antagonist mode. As to the method:
as §1

For another experiment, the target named is T8, ETA L259^5.42A (Homo sapiens, UniProt P25101, L259A).
T8 construct: expressed in transfected cells; host or cells: CHO-K1
Nature of the experiment: Calcium mobilization assay, antagonist mode. As to the method: as §1

For a further experiment, the target named is T9, ETA WT (Homo sapiens, UniProt P25101).
T9 construct: expressed in transfected cells; host or cells: CHO-K1
Nature of the experiment: Calcium mobilization assay, antagonist mode (ET-1 stimulated), CHO-K1 cells. As to the method: as §1, with “Nonlinear curve fit was performed using a four-parameter logistic equation (log (agonist vs response) or log (inhibitor vs response)).” left out

Regarding `COc1nc(C)cnc1NS(=O)(=O)c1cccnc1-c1ccc(-c2nnco2)cc1` [zibotentan], the IC50 is 4.07 µM at ETA R326^6.55A; 6.31 µM at ETA Y129^2.53A; 9.55 µM at ETA Y129^2.53H; 2.57 µM at ETA Y263^5.46A; 6.03 µM on ETA L322^6.51A; 4.27 µM on ETA Y129^2.53F. Also, the IC50 was 5.5 µM on ETA F161^3.28A; 10.2 µM on ETA L259^5.42A; 0.0086 µM on ETA WT (CHO-K1 cells, n = 5, read-out: IC50, inhibition activity on ETA in calcium mobilization assay); 0.0135 µM at ETA WT (read-out: pIC50±S.E.M. (converted)).
